# From ChEMBL document CHEMBL5724801, “EUbOPEN Chemogenomics Library - Multiplex” (2024)
# Experiments:
# Type in all cases: toxicity, cell-based
# Fibroblast = experiment: Multiplex assay against human fibroblast
# HEK-293T = experiment: Multiplex assay against HEK293T; details: human
# U2OS = experiment: Multiplex assay against U2OS; details: human, 0 h, 10 µM, compound concentration 10 uM
# [1] = 0 h, 1 µM, compound concentration 1 uM
# [2] = 0 h, 10 µM, compound concentration 10 uM
# [3] = 12 h, 1 µM, compound concentration 1 uM
# [4] = 12 h, 10 µM, compound concentration 10 uM
# [5] = 24 h, 1 µM, compound concentration 1 uM
# [6] = 24 h, 10 µM, compound concentration 10 uM
# [7] = 48 h, 1 µM, compound concentration 1 uM
# [8] = 48 h, 10 µM, compound concentration 10 uM
compound,measurement,setting,value
CNC[C@H](O)c1ccc(O)c(O)c1 [EPINEPHRINE],Total Cell Count,Fibroblast; [1],123 and 150
same,Total Cell Count,Fibroblast; [2],146
same,Total Cell Count,Fibroblast; [3],135 and 119
same,Total Cell Count,Fibroblast; [4],142
same,Total Cell Count,Fibroblast; [5],132 and 126
same,Total Cell Count,Fibroblast; [6],169 and 143
same,Total Cell Count,Fibroblast; [7],135 and 126
same,Total Cell Count,Fibroblast; [8],168 and 153
same,Total Cell Count,HEK-293T; [1],314 and 249
same,Total Cell Count,HEK-293T; [2],228 and 218
same,Total Cell Count,HEK-293T; [3],475
same,Total Cell Count,HEK-293T; [4],272 and 244
same,Total Cell Count,HEK-293T; [5],648 and 482
same,Total Cell Count,HEK-293T; [6],315 and 293
same,Total Cell Count,HEK-293T; [7],1107 and 678
same,Total Cell Count,HEK-293T; [8],486 and 312
same,Total Cell Count,U2OS,175

# “And” between values parts separate entries of the source, which are not always exact repeats. Equal values may be shown once.
